# Measurements reported in publication PMC7723054.
# This is one part of the list.
# T1: LIN28A (human?, UniProt Q9H9Z2 1-209)
# T1 sequence: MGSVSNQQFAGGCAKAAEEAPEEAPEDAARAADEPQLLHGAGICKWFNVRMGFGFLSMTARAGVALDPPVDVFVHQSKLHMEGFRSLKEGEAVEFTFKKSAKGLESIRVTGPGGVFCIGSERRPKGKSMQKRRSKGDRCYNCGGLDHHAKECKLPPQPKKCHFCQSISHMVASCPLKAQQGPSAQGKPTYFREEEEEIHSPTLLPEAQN
# T2: CIRBP (Homo sapiens, UniProt Q14011 1-172)
# T2 sequence: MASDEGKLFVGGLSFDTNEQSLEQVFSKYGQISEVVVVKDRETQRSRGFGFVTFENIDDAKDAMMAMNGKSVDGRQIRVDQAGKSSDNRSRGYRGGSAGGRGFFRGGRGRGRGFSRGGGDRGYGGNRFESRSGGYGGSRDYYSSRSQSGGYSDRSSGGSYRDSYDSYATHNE
# T3: DHX36 (Homo sapiens, UniProt Q9H2U1 1-1008)
# T3 sequence: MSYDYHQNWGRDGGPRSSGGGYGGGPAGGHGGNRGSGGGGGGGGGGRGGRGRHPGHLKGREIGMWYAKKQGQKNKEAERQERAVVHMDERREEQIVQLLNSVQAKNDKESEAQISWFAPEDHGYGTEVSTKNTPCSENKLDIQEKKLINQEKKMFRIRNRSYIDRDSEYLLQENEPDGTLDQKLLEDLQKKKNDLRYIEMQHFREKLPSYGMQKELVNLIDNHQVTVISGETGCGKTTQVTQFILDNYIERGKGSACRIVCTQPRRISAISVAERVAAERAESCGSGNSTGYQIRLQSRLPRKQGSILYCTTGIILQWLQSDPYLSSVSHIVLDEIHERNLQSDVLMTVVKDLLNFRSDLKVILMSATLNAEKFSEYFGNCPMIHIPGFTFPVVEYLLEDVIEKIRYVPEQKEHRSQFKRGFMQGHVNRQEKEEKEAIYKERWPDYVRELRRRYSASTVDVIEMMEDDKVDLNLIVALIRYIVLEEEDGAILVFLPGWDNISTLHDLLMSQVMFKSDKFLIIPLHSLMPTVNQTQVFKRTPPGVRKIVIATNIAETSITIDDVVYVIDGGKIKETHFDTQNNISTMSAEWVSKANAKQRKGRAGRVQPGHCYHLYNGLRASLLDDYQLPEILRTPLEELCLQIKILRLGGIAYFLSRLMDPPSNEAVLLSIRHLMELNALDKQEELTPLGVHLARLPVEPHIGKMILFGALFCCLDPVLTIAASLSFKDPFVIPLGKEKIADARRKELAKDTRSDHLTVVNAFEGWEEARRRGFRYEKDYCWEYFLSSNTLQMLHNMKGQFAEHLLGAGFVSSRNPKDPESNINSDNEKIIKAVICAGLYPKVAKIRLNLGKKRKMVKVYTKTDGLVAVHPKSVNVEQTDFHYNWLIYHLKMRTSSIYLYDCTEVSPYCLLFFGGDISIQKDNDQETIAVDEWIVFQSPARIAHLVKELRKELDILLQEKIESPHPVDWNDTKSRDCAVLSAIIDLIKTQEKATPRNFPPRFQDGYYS
# B1: hsa-mir-151a (structured_RNA)
# RNA: GGGAAAGGCGAUGCUUAGGCUUUUGCUUGGUGUACGAAGUUUCAGCCUAGUAUGUCUCAUCCCCUACUAGGCUGAAGCUUCGUGCAC
# B2: hsa-mir-3122 (structured_RNA)
# RNA: GGGAAAGGACUCGUCAUUCCGGAUGCUCGGUGUACGAAGUUUCAGCUCUUCUUUUGGAAGGAAGAGCUGAAGCUUCGUGCAC
# B3: hsa-mir-5698 (structured_RNA)
# RNA: GGGAAAUUGUGGGUCGAGCAUAUUGCCCGGUGUACGAAGUUUCAGCGUGGAAUGCAAAGUCCCACGCUGAAGCUUCGUGCAC
# B4: hsa-mir-380 (structured_RNA)
# RNA: GGGAAAGUCCGGGUCCGUAAUGUGACUUGGUGUACGAAGUUUCAGCCAUGCGCUAUCUCUGUGUCGUAUGGCUGAAGCUUCGUGCAC
# B5: hsa-mir-7-1 (structured_RNA)
# RNA: GGGAAGAUGUGGCUUCGUAACCAAUCCUGGUGUACGAAGUUUCAGCGUUGUUUUUAGAUAACUAAAUCGACAACGCUGAAGCUUCGUGCAC
# B6: hsa-mir-1302-11_1302-10_1302-3_1302-2_1302-9 (structured_RNA)
# RNA: GGGAAGCAGACGUACGAAUCCGCAGUCCGGUGUACGAAGUUUCAGCCCAAGCUUAGUUUGGGCUGAAGCUUCGUGCAC
# B7: hsa-mir-548f-3 (structured_RNA)
# RNA: GGGAAAGGCGAGUCUAUUUGUAAACCUGGGUGUACGAAGUUUCAGCUUUUGCAGUUUUUUUAAGUAAUUGCAAAAGCUGAAGCUUCGUGCAC
# B8: hsa-mir-4477a (structured_RNA)
# RNA: GGGAACACAAGUUGGCCGUAGCAUCCAGGGUGUACGAAGUUUCAGCAUGGCAUUUAAGGAUUGCUAUGCUGAAGCUUCGUGCAC
# B9: hsa-mir-4520-1 (structured_RNA)
# RNA: GGGAACUAAAUUGGCCGAUUCAGCUGACGGUGUACGAAGUUUCAGCCCAAAUCAGAAAAGGAUUUGGGCUGAAGCUUCGUGCAC
# B10: hsa-mir-1245a (structured_RNA)
# RNA: GGGACUAGCUGACAUAUGCGUUCGGAAGGGUGUACGAAGUUUCAGCAUCUGAUGUUGAAUACUCUUUAAGUGCUGAAGCUUCGUGCAC
# B11: hsa-mir-3185 (structured_RNA)
# RNA: GGGAACAGUGCAGCAAGCGGUCACUUACGGUGUACGAAGUUUCAGCGCGGGAGCCAGGCCGCGCUGAAGCUUCGUGCAC
# B12: hsa-mir-571 (structured_RNA)
# RNA: GGGAAGAAAUACUGGGUCUACGUCAAAAGGUGUACGAAGUUUCAGCUUCCUUGUCUGUAGCCAUGUCUAUGGGCUCUUGAGGCUGAAGCUUCGUGCAC
# B13: hsa-mir-6733 (structured_RNA)
# RNA: GGGAAUCGAGUUCCAGCCUACACAAGAGGGUGUACGAAGUUUCAGCCAGAGUUCCCUUCUUGUGAGCUCAGGCUGAAGCUUCGUGCAC
# B14: hsa-mir-548al (structured_RNA)
# RNA: GGGCAUCGUGCGCCAAUACCCAGGAUUAGGUGUACGAAGUUUCAGCUGUUUUUGCCAUUAAAAAUAAUGGCAUUAAAAGUAAUGGCAAAAACGGCUGAAGCUUCGUGCAC
# B15: hsa-mir-4689 (structured_RNA)
# RNA: GGGAUGAAGUCGGCUCAGUGCGGUAAGUGGUGUACGAAGUUUCAGCGGCCGGUCAGGCAGCUGAAGCUUCGUGCAC
# B16: hsa-mir-6731 (structured_RNA)
# RNA: GGGACUGUGUUGUACCCACGCGCAAAAUGGUGUACGAAGUUUCAGCUGGAAGCUCCAGGUGCCAACCACCUGCCUCUAGCUGAAGCUUCGUGCAC
# B17: hsa-mir-3615 (structured_RNA)
# RNA: GGGAAGGUUUACGCCAACACUUCAAAGGGGUGUACGAAGUUUCAGCGAUUGGUCUGUGGUCCUCUCGCUGAAGCUUCGUGCAC
# B18: hsa-mir-4272 (structured_RNA)
# RNA: GGGAAGAAUCAUGCGUGGGCCUCGAUCUGGUGUACGAAGUUUCAGCAAUGCAUAGAAAGCAUUGCUGAAGCUUCGUGCAC
# B19: hsa-mir-922 (structured_RNA)
# RNA: GGGAAGUAACGUAUGUGCGAAUCUCUGCGGUGUACGAAGUUUCAGCCUGUCCUGGACUGGGGUCAGACUGUGCCCCGAGGAGAAGCAGGCUGAAGCUUCGUGCAC
# B20: hsa-mir-6717 (structured_RNA)
# RNA: GGGCAAUCCGAUGAUGGGCUCAACUCCCGGUGUACGAAGUUUCAGCGAGACAACUUCCCAGUCUCGCUGAAGCUUCGUGCAC
# B21: hsa-mir-96 (structured_RNA)
# RNA: GGGAAACGCAAGACGGGUCCUCUCCAUGGGUGUACGAAGUUUCAGCUUUUGCUUGUGUCUCUCCGCUCUGAGCAAUCGCUGAAGCUUCGUGCAC
# B22: hsa-mir-4457 (structured_RNA)
# RNA: GGGAACCGUAGUGCAACCUGACUAGAUAGGUGUACGAAGUUUCAGCGUGAGUUAGAAAAGCUCAAUUCACGCUGAAGCUUCGUGCAC
# B23: hsa-mir-4656 (structured_RNA)
# RNA: GGGAACCAGUAAUACGGGAGAACAGUCCGGUGUACGAAGUUUCAGCCUGUGGCCGGUCCCAGGCUGAAGCUUCGUGCAC
# B24: hsa-mir-548d-1 (structured_RNA)
# RNA: GGGAAACACUGGUAGCUCGUAGAACCCCGGUGUACGAAGUUUCAGCUUUGCCUGUAAAAGUAAUGGCAAAGCUGAAGCUUCGUGCAC
# B25: hsa-mir-4423 (structured_RNA)
# RNA: GGGACCUGCGUGAAACGGAUAUGCCUGAGGUGUACGAAGUUUCAGCCCAUGCUGUUUAAGCCUAGCAUAGGCUGAAGCUUCGUGCAC
# B26: hsa-mir-6072 (structured_RNA)
# RNA: GGGAACCUAAAGCAUGUGCGACUGUGAUGGUGUACGAAGUUUCAGCCUUUGCUACUGCUCGCUGAAGCUUCGUGCAC
# Target: T1, LIN28A
# Assay: FOREST: bead pull-down of RNA structure library v1, barcode microarray; U1A/LIN28A: 20 mM HEPES pH 7.5, 80 mM KCl, 20 mM NaCl, 10% glycerol, 2 mM DTT, 0.1 ug/uL BSA, 4 C; BG4/CIRBP/DHX36: 10 mM Tris-HCl pH 7.5, 100 mM KCl (or LiCl),; high values mean tight binding
row,Binder,binding signal [z-score]
1,B1,-0.963
2,B2,-0.967
3,B3,-0.972
4,B4,-0.974
5,B5,-0.975
6,B6,-0.975
7,B7,-0.977
8,B8,-0.981
9,B9,-0.983
10,B10,-0.983
11,B11,-0.984
12,B12,-0.985
13,B13,-0.993
14,B14,-0.994
15,B15,-0.994
16,B16,-0.995
17,B17,-0.996
18,B18,-1.01
19,B19,-1.02
20,B20,-1.02
21,B21,-1.02
22,B22,-1.03
23,B23,-1.03
24,B24,-1.03
25,B25,-1.03
26,B26,-1.03

# Target: T2, CIRBP
# Assay: as above
row,Binder,binding signal [z-score]
1,B1,-0.311
2,B2,-0.583
3,B3,-0.958
4,B4,-0.263
5,B5,-0.239
6,B6,-0.402
7,B7,-0.102
8,B8,-0.199
9,B9,-0.74
10,B10,-0.00146
11,B11,0.429
12,B12,0.609
13,B13,0.0471
14,B14,-1.09
15,B15,-0.708
16,B16,0.149
17,B17,-0.141
18,B18,0.27
19,B19,0.275
20,B20,-0.66
21,B21,0.561
22,B22,-0.816
23,B23,0.394
24,B24,-0.311
25,B25,0.384
26,B26,-0.308

# Target: T3, DHX36
# Assay: as above
row,Binder,binding signal [z-score]
1,B1,-0.0582
2,B2,0.226
3,B3,-0.735
4,B4,0.188
5,B5,-0.149
6,B6,-0.659
7,B7,-0.548
8,B8,-0.378
9,B9,-0.751
10,B10,-0.816
11,B11,0.159
12,B12,-0.289
13,B13,0.373
14,B14,-1.04
15,B15,-0.275
16,B16,-0.593
17,B17,0.12
18,B18,0.63
19,B19,0.245
20,B20,-0.262
21,B21,-0.517
22,B22,-0.33
23,B23,-0.571
24,B24,-1.5
25,B25,-0.595
26,B26,-0.541
